Amino acid sequences for entries named in this document (tags omitted). A change or cut given only in a name is not applied to a line headed by its entry.
UniProt P41145: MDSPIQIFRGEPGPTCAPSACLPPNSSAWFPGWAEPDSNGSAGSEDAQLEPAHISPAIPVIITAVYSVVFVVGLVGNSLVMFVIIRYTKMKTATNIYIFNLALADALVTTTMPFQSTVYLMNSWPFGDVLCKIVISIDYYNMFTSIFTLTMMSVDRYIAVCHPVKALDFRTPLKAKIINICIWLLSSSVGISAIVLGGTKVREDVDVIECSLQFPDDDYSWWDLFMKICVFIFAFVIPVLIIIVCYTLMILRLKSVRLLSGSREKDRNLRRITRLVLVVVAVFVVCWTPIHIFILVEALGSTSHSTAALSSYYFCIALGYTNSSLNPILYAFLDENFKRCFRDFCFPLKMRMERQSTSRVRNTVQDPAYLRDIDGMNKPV
UniProt P41143: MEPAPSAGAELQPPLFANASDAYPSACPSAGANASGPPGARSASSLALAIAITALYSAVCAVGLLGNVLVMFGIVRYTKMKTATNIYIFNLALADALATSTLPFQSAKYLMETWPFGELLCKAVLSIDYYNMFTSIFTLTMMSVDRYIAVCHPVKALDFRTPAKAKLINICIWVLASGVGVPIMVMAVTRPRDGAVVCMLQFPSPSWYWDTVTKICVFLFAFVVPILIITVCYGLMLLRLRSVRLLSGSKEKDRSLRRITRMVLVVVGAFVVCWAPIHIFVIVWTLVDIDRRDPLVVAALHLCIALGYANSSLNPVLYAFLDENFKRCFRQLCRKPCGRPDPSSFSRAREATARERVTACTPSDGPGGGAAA
UniProt P35372: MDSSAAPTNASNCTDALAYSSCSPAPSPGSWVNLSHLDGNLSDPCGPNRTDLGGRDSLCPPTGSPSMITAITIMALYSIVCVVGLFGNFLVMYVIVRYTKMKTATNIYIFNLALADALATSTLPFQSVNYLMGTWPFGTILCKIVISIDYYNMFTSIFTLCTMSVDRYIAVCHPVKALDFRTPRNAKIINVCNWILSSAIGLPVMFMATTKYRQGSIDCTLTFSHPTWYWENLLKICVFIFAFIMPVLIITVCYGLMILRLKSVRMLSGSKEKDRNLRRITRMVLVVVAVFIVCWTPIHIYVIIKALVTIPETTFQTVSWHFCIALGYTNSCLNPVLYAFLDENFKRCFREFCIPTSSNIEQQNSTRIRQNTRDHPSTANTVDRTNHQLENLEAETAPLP
UniProt P41146: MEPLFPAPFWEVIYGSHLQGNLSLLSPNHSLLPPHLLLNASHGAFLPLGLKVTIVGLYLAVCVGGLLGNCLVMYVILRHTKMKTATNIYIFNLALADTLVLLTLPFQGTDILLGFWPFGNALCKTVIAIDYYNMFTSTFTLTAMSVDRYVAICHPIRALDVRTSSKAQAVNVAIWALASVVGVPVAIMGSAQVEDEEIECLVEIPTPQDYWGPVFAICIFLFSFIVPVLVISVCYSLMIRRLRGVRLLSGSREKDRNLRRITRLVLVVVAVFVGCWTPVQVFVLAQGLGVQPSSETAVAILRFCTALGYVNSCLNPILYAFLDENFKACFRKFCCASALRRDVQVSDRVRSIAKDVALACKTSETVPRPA

According to patent US8846929B2, “Substituted-quinoxaline-type piperidine compounds and the uses thereof” (priority 2007, dated 2014):

Key:
[1] = biological target: T1, kappa opioid receptor (Homo sapiens (Human), UniProt P41145); experiment: In vitro kappa-opioid receptor [35S]GTPγS functional assay; type: biochemical; settings: mean ± SEM; for EC50: read-out: GTPγS Opioid Receptor Kappa EC50
[2] = biological target: delta opioid receptor (Homo sapiens (Human), UniProt P41143); experiment: In vitro delta-opioid receptor binding assay ([3H]-Naltrindole displacement); settings: read-out: Ki [Average ± Std Deviation] Opioid Receptor Delta; recombinant receptor expressed in CHO-K1 cells
[3] = biological target: T2, μ-opioid receptor (Homo sapiens (Human), UniProt P35372); experiment: In vitro mu-opioid receptor [35S]GTPγS functional assay; settings: mean ± SEM; for EC50: read-out: GTPγS Opioid Receptor Mu EC50
[4] = biological target: T3, human opioid receptor-like (ORL-1) (Homo sapiens (Human), UniProt P41146); experiment: In vitro ORL-1 receptor binding assay ([3H]-nociceptin displacement); settings: read-out: Ki [Average ± Std Deviation] ORL-1; membranes from recombinant HEK-293 cells
[5] = biological target: T2, μ-opioid receptor; experiment: In vitro mu-opioid receptor binding assay ([3H]-diprenorphine displacement); settings: read-out: Ki [Average ± Std Deviation] Opioid Receptor Mu
[6] = biological target: T1, kappa opioid receptor; experiment: In vitro kappa-opioid receptor binding assay ([3H]-U69,593 displacement); settings: read-out: Ki [Average ± Std Deviation] Opioid Receptor Kappa; membranes from recombinant HEK-293 cells
[7] = biological target: T3, human opioid receptor-like (ORL-1); experiment: In vitro ORL-1 receptor [35S]GTPγS functional assay; type: biochemical; settings: mean ± SEM; for EC50: read-out: GTPγS ORL-1 EC50

Substance	GTPγS Opioid Receptor Kappa Emax [1]	EC50 [1]	Ki [2]	GTPγS Opioid Receptor Mu Emax [3]	EC50 [3]	Ki [4]	Ki [5]	Ki [6]	GTPγS ORL-1 Emax [7]	EC50 [7]
4-((endo)-8-cyclodecyl-8-azabicyclo[3.2.1]octan-3-yl)-3-oxo-3,4-dihydroquinoxaline-2-carboxylic acid	20.0%	1.26 µM	1.61 µM	14.7 ± 1.5%	5.71 µM	2.5 nM	709 nM	425 nM	106.3 ± 0.9%	28.1 nM
4-((endo)-8-cyclooctyl-8-azabicyclo[3.2.1]octan-3-yl)-3-oxo-N-(6-oxo-1,6-dihydropyridin-3-yl)-3,4-dihydroquinoxaline-2-carboxamide	8.3 ± 0.9%	1.36 µM	17.5 µM	8.7 ± 0.3%	5.11 µM	7.5 nM	374 nM	161 nM	87.3 ± 3.9%	67.6 nM
4-((endo)-8-cyclooctyl-8-azabicyclo[3.2.1]octan-3-yl)-N-(6-methoxypyridin-3-yl)-3-oxo-3,4-dihydroquinoxaline-2-carboxamide	8.7 ± 0.3%	0.831 µM	1.71 µM		79.3 µM	3.1 nM	210 nM	55.8 nM	94.0 ± 3.6%	41.3 nM
4-((endo)-9-cyclononyl-9-azabicyclo[3.3.1]nonan-3-yl)-3-oxo-3,4-dihydroquinoxaline-2-carboxylic acid		1.77 µM	3.16 µM	17.3 ± 2.9%	3.39 µM	1.4 nM	699 nM	375 nM	96.5 ± 1.9%	11.1 nM
(2S)-2-(4-((endo)-8-cyclooctyl-8-azabicyclo[3.2.1]octan-3-yl)-3-oxo-1,2,3,4-tetrahydroquinoxaline-2-carboxamido)-3-hydroxypropanoic acid	8.3 ± 0.9%	4.68 µM	26 µM	10.6 ± 1.2%	3.58 µM	43.7 nM	422 nM	422 nM	105.0 ± 0.6%	594 nM
(2S)-2-(4-((endo)-8-cyclooctyl-8-azabicyclo[3.2.1]octan-3-yl)-3-oxo-3,4-dihydroquinoxalin-2-ylamino)-3-hydroxypropanamide		3.15 µM	29.2 µM	14%	2.15 µM	8.6 nM	196 nM	130 nM	83.3 ± 8.0%	93.1 nM
(2S)-2-(4-((endo)-8-cyclooctyl-8-azabicyclo[3.2.1]octan-3-yl)-3-oxo-3,4-dihydroquinoxaline-2-carboxamido)-3-hydroxypropanoic acid	8.3 ± 0.3%	3.85 µM	26.1 µM	9.7 ± 0.6%	1.75 µM	13.5 nM	462 nM	180 nM	107.7 ± 3.7%	183 nM
(5)-2-(4-((endo)-8-cyclooctyl-8-azabicyclo[3.2.1]octan-3-yl)-3-oxo-3,4-dihydroquinoxalin-2-ylamino)-3-phenylpropanoic acid	3.7%	9.7 µM	1.87 µM	10.5%	1.75 µM	78.8 nM	377 nM	534 nM	69%	1210 nM
ethyl 4-((endo)-9-cyclooctyl-9-azabicyclo[3.3.1]nonan-3-yl)-3-oxo-3,4-dihydroquinoxaline-2-carboxylate		6.24 µM	41.2 µM	7.7 ± 0.6%	9.87 µM	40.3 nM	480 nM	46.3 nM	58.3 ± 1.9%	103 nM
